## Vapor pressure values, as collected for the OPERA models

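OPERA's authors assembled the values from existing databases and did not measure them anew. One number stands for a compound and property, with no spread given. Conditions of the individual experiments are not part of the data. Where a salt, mixture or single isomer is drawn, the source does not say that exactly this form was tested. Some entries may be limits or estimates that an upstream database listed as plain numbers.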

Vapor pressure is log10 of mmHg; the set covers 15 to 30 °C, mostly 20 to 25 °C.
"via" names the databases from which the curators took the value.

For Clc1ccc(-c2cc(Cl)c(Cl)c(Cl)c2Cl)cc1 [2,3,4,4',5-Pentachlorobiphenyl] the data give vapor pressure -4.375 (log10 mmHg) (via OCHEM).
For Oc1cc(Cl)c(Cl)cc1O [4,5-Dichlorocatechol] the data give vapor pressure -2.514 (log10 mmHg) (via OCHEM).
For CCn1cc(C(=O)O)c(=O)c2cc3c(cc21)OCO3 [Oxolinic acid] the data give vapor pressure -5.959 (log10 mmHg) (via OCHEM).
For CC(C)C(=O)Cl [2-Methylpropanoyl chloride] the data give vapor pressure 1.631 (log10 mmHg) (via eChemPortal).
For O=S(=O)([O-])[O-].OC[P+](CO)(CO)CO.OC[P+](CO)(CO)CO [Tetrakis(hydroxymethyl)phosphonium sulfate] the data give vapor pressure -5.71 (log10 mmHg) (via eChemPortal).
For C[N+](C)(C)C.[Cl-] [Tetramethylammonium chloride] the data give vapor pressure -9.966 (log10 mmHg) (via eChemPortal).
For O=C([O-])CCCCCNc1nc(NCCCCCC(=O)[O-])nc(NCCCCCC(=O)[O-])n1.[Na+].[Na+].[Na+] the data give vapor pressure -6.534 (log10 mmHg) (via eChemPortal).
For Clc1cc2oc3cc(Cl)c(Cl)cc3c2cc1Cl the data give vapor pressure -5.245 (log10 mmHg) (via OCHEM).
For CS(=O)(=O)Cl [Methanesulfonyl chloride] the data give vapor pressure 0.421 (log10 mmHg) (via PubChem, eChemPortal).
For Clc1ccc(-c2c(Cl)c(Cl)cc(Cl)c2Cl)cc1 [2,3,4',5,6-Pentachlorobiphenyl] the data give vapor pressure -4.405 (log10 mmHg) (via OCHEM).
For CN(C)C(=S)[S-].[K+] [Potassium dimethyldithiocarbamate] the data give vapor pressure -6.182 (log10 mmHg) (via eChemPortal).
For C[C@H]1O[C@H](O[C@H]2[C@H](O)[C@@H](O)[C@@H](O)[C@H](O)[C@@H]2O)[C@@H](N)C[C@@H]1NC(=N)C(=O)O [Kasugamycin] the data give vapor pressure -7 (log10 mmHg) (via OCHEM).
For CC1(C(=O)Cl)CCCCC1 the data give vapor pressure -0.091 (log10 mmHg) (via eChemPortal).
For Clc1ccc(-c2c(Cl)c(Cl)c(Cl)c(Cl)c2Cl)cc1 [2,3,4,4',5,6-Hexachlorobiphenyl] the data give vapor pressure -5.055 (log10 mmHg) (via OCHEM).
For CCCC(=O)Cl [Butyryl chloride] the data give vapor pressure 1.477 (log10 mmHg) (via PubChem, eChemPortal).
For CNC(=O)Oc1ccc(N(C)C)c(C)c1 [Aminocarb] the data give vapor pressure -4.763 (log10 mmHg) (via OCHEM, PubChem).
For Clc1cc(Cl)c(-c2c(Cl)c(Cl)c(Cl)c(Cl)c2Cl)cc1Cl [2,2',3,4,4',5,5',6-Octachlorobiphenyl] the data give vapor pressure -5.996 (log10 mmHg) (via OCHEM).
For COc1ccc(C=O)cc1OC [Veratraldehyde] the data give vapor pressure -3.171 (log10 mmHg) (via eChemPortal).
For CCOP(c1ccccc1)c1ccccc1 [Ethyl diphenylphosphinite] the data give vapor pressure -2.963 (log10 mmHg) (via eChemPortal).
For c1ccc(OP(Oc2ccccc2)Oc2ccccc2)cc1 [Triphenyl phosphite] the data give vapor pressure -3.286 (log10 mmHg) (via eChemPortal).
For Cc1ccc(C)c2c(C)cccc12 [1,4,5-Trimethylnaphthalene] the data give vapor pressure -2.295 (log10 mmHg) (via OCHEM).
For CC(Oc1ccc(Oc2ncc(C(F)(F)F)cc2Cl)cc1)C(=O)O (stereo not given) [Haloxyfop] the data give vapor pressure -8.001 (log10 mmHg) (via OCHEM).
For N#CCCCCCCC#N [Suberonitrile] the data give vapor pressure -3.286 (log10 mmHg) (via eChemPortal).
For c1nc[nH]n1 [1H-1,2,4-Triazole] the data give vapor pressure -2.782 (log10 mmHg) (via eChemPortal).
For FC(F)(F)C(F)(C(F)(F)F)C(F)(C(F)(F)F)C(F)(F)F [Perfluoro-2,3-dimethylbutane] the data give vapor pressure 2.285 (log10 mmHg) (via ICF).
For Clc1cc2c(oc3c(Cl)c(Cl)c(Cl)cc32)c(Cl)c1Cl [2,3,4,6,7,8-Hexachlorodibenzo[b,d]furan] the data give vapor pressure -7.425 (log10 mmHg) (via OCHEM).
For C=CC(C)=O [Methyl vinyl ketone] the data give vapor pressure 1.934 (log10 mmHg) (via PubChem).
For CN(C)CCN(C)C [N,N,N',N'-Tetramethylethylenediamine] the data give vapor pressure 1.088 (log10 mmHg) (via eChemPortal).
For FC(C(F)(F)F)C(F)(F)OCC(F)(F)F (stereo not given) [(2H-Perfluoropropyl)(1H,1H-perfluoroethyl)ether] the data give vapor pressure 1.972 (log10 mmHg) (via ICF).
For Clc1ccc(C(Cl)Cl)cc1 [4-Chlorobenzal chloride] the data give vapor pressure -1.313 (log10 mmHg) (via eChemPortal).
For C/C=C(\C)C(=O)O[C@H]1C[C@@H](OC(C)=O)[C@@]2(C(=O)OC)CO[C@H]3[C@@H](O)[C@@](C)([C@]45O[C@@]4(C)[C@H]4C[C@@H]5O[C@@H]5OC=C[C@@]54O)[C@H]4[C@]1(CO[C@]4(O)C(=O)OC)[C@@H]32 the data give vapor pressure -10.57 (log10 mmHg) (via OCHEM, PubChem).
For COP(=S)(OC)SCC(=O)N(c1ccc(Cl)cc1)C(C)C [Anilofos] the data give vapor pressure -4.783 (log10 mmHg) (via OCHEM).
For CC(C)(C)[C@@H](O)[C@@H](Cc1ccc(Cl)cc1Cl)n1cncn1 [Diclobutrazol] the data give vapor pressure -7.693 (log10 mmHg) (via OCHEM).
For Nc1ccc(Cl)cc1[N+](=O)[O-] [4-Chloro-2-nitroaniline] the data give vapor pressure -3.314 (log10 mmHg) (via PubChem).
For Clc1cc(Cl)cc(-c2cc(Cl)c(Cl)c(Cl)c2Cl)c1 [2,3,3',4,5,5'-Hexachlorobiphenyl] the data give vapor pressure -5.085 (log10 mmHg) (via OCHEM).
For COCCNC(=O)CSP(=S)(OC)OC [Amidithion] the data give vapor pressure -5.565 (log10 mmHg) (via OCHEM).
For NCCCNCCCN [Norspermidine] the data give vapor pressure -2.024 (log10 mmHg) (via eChemPortal).
For O=[N+]([O-])c1cc(Cl)ccc1Cl [1,4-Dichloro-2-nitrobenzene] the data give vapor pressure -2.417 (log10 mmHg) (via PubChem, eChemPortal).
For CCSC(C)CC1CC(=O)C(C(CC)=NOC/C=C/Cl)=C(O)C1 (stereo partly drawn) [Clethodim] the data give vapor pressure -7.807 (log10 mmHg) (via OCHEM).
For CN1C2CCC1CC(OC(=O)C(CO)c1ccccc1)C2.CN1C2CCC1CC(OC(=O)C(CO)c1ccccc1)C2.O=S(=O)(O)O (stereo not given) [Atropine sulfate anhydrous (2:1) salt] the data give vapor pressure -7.712 (log10 mmHg) (via OCHEM).

Extract of 3 entries:

{"smiles": "Cc1ccc(C)c2c(C)cccc12", "name": "1,4,5-Trimethylnaphthalene", "vapor pressure (log10 mmHg)": "-2.295", "via": "OCHEM"}
{"smiles": "C[N+](C)(C)C.[Cl-]", "name": "Tetramethylammonium chloride", "vapor pressure (log10 mmHg)": "-9.966", "via": "eChemPortal"}
{"smiles": "CS(=O)(=O)Cl", "name": "Methanesulfonyl chloride", "vapor pressure (log10 mmHg)": "0.421", "via": "PubChem, eChemPortal"}

Source: data files of OPERA 2.9 (Mansouri et al.), github.com/kmansouri/OPERA.